## Membrane permeability of cyclic peptides

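Lipid, pH, incubation time, direction and concentration are not recorded in the data file. The list need not hold all peptides of the study. Entries at the database's floor value (log10 P of -10) are not listed.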

PAMPA is the parallel artificial membrane permeability assay, which has no cells and reads passive diffusion.
Permeability is given as log10 of P in cm/s; higher (less negative) is more permeable.

CCCC[C@@H]1NC(=O)[C@H](CC(C)C)N(C)C(=O)CN(Cc2ccccc2)C(=O)[C@H](CC(C)C)NC(=O)CN(CCCCc2ccccc2)C(=O)[C@H]2CCCN2C1=O has PAMPA -7.53 (log10 cm/s).
CCCC[C@@H]1NC(=O)[C@H](CC(C)C)N(C)C(=O)CN(CC2CCCCC2)C(=O)[C@H](CC(C)C)NC(=O)CN(CCC)C(=O)[C@H]2CCCN2C1=O has PAMPA -5.70 (log10 cm/s).
CCCC[C@@H]1NC(=O)[C@H](CC(C)C)N(C)C(=O)CN(CCc2cccnc2)C(=O)[C@H](C)NC(=O)CN(Cc2ccccc2Cn2cccn2)C(=O)[C@H]2CCCN2C1=O has PAMPA -6.77 (log10 cm/s).
CCCC[C@@H]1NC(=O)[C@H](CC(C)C)N(C)C(=O)CN(CCCN2CCCC2=O)C(=O)[C@H](CC(C)C)NC(=O)CN(Cc2cc(CC(C)C)on2)C(=O)[C@H]2CCCN2C1=O has PAMPA -5.71 (log10 cm/s).
CCCC[C@@H]1NC(=O)[C@H](CC(C)C)N(C)C(=O)CN(CC2CCOCC2)C(=O)[C@H](CC(C)C)NC(=O)CN(Cc2ccccc2Cn2cccn2)C(=O)[C@H]2CCCN2C1=O has PAMPA -5.38 (log10 cm/s).
CCCC[C@@H]1NC(=O)[C@H](CC(C)C)N(C)C(=O)CN(CC2CCCCC2)C(=O)[C@H](C)NC(=O)CN(CCC)C(=O)[C@H]2CCCN2C1=O has PAMPA -4.93 (log10 cm/s).
CCCC[C@@H]1NC(=O)[C@H](CC(C)C)N(C)C(=O)CN(CCCc2ccccc2)C(=O)[C@H](Cc2ccc3ccccc3c2)NC(=O)CN(CCC)C(=O)[C@H]2CCCN2C1=O has PAMPA -7.44 (log10 cm/s).
CCCC[C@@H]1NC(=O)[C@H](CC(C)C)N(C)C(=O)CN(Cc2ccccc2)C(=O)[C@H](Cc2ccccc2)NC(=O)CN(CCCOC(C)C)C(=O)[C@H]2CCCN2C1=O has PAMPA -5.52 (log10 cm/s).
CCCC[C@@H]1NC(=O)[C@H](CC(C)C)N(C)C(=O)CN(CCOc2ccccc2)C(=O)[C@H](Cc2ccc3ccccc3c2)NC(=O)CN(CCCCc2ccccc2)C(=O)[C@H]2CCCN2C1=O has PAMPA -7.95 (log10 cm/s).
CCCCCN1CC(=O)N(C)[C@@H](CC(C)C)C(=O)N[C@@H](CCCC)C(=O)N2CCC[C@@H]2C(=O)N(Cc2cc(CC(C)C)on2)CC(=O)N[C@@H](CC(C)C)C1=O has PAMPA -6.58 (log10 cm/s).
CCCC[C@@H]1NC(=O)[C@H](CC(C)C)N(C)C(=O)CN(Cc2ccccc2)C(=O)[C@H](Cc2ccc3ccccc3c2)NC(=O)CN(CCC)C(=O)[C@H]2CCCN2C1=O has PAMPA -6.74 (log10 cm/s).
CCCC[C@@H]1NC(=O)[C@H](CC(C)C)N(C)C(=O)CN(Cc2ccccc2)C(=O)[C@H](Cc2ccc3ccccc3c2)NC(=O)CN(Cc2ccc(Cl)cc2)C(=O)[C@H]2CCCN2C1=O has PAMPA -9.46 (log10 cm/s).
CCCC[C@@H]1NC(=O)[C@H](CC(C)C)N(C)C(=O)CN(CCCc2cnn(C)c2)C(=O)[C@H](CC(C)C)NC(=O)CN(CC(C)C)C(=O)[C@H]2CCCN2C1=O has PAMPA -5.30 (log10 cm/s).
CCCC[C@@H]1NC(=O)[C@H](CC(C)C)N(C)C(=O)CN(CCCN2CCCC2=O)C(=O)[C@H](Cc2ccc3ccccc3c2)NC(=O)CN(Cc2cc(CC(C)C)on2)C(=O)[C@H]2CCCN2C1=O has PAMPA -6.36 (log10 cm/s).
CCCC[C@@H]1NC(=O)[C@H](CC(C)C)N(C)C(=O)CN(CCCc2cnn(C)c2)C(=O)[C@H](CC(C)C)NC(=O)CN(Cc2ccc3c(c2)OCO3)C(=O)[C@H]2CCCN2C1=O has PAMPA -5.44 (log10 cm/s).
CCCC[C@@H]1NC(=O)[C@H](CC(C)C)N(C)C(=O)CN(CC2CCCCC2)C(=O)[C@H](CC(C)C)NC(=O)CN(CC)C(=O)[C@H]2CCCN2C1=O has PAMPA -5.17 (log10 cm/s).
CCCC[C@@H]1NC(=O)[C@H](CC(C)C)N(C)C(=O)CN(CCOc2ccccc2)C(=O)[C@H](Cc2ccccc2)NC(=O)CN(CCCOC(C)C)C(=O)[C@H]2CCCN2C1=O has PAMPA -5.75 (log10 cm/s).
CCCC[C@@H]1NC(=O)[C@H](CC(C)C)N(C)C(=O)CN(CCc2cccnc2)C(=O)[C@H](Cc2ccc3ccccc3c2)NC(=O)CN(CCC)C(=O)[C@H]2CCCN2C1=O has PAMPA -5.43 (log10 cm/s).
CCCC[C@@H]1NC(=O)[C@H](CC(C)C)N(C)C(=O)CN(CCOC)C(=O)[C@H](CC(C)C)NC(=O)CN(Cc2ccc3c(c2)OCO3)C(=O)[C@H]2CCCN2C1=O has PAMPA -5.04 (log10 cm/s).
CCCC[C@@H]1NC(=O)[C@H](CC(C)C)N(C)C(=O)CN(CC2CCOCC2)C(=O)[C@H](Cc2ccccc2)NC(=O)CN(Cc2ccccc2Cn2cccn2)C(=O)[C@H]2CCCN2C1=O has PAMPA -5.40 (log10 cm/s).
CCCC[C@@H]1NC(=O)[C@H](CC(C)C)N(C)C(=O)CN(CCOC)C(=O)[C@H](C)NC(=O)CN(CCC)C(=O)[C@H]2CCCN2C1=O has PAMPA -6.56 (log10 cm/s).

Again, the 2 entries with the lowest PAMPA:

| compound | PAMPA (log10 cm/s) |
|---|---|
| CCCC[C@@H]1NC(=O)[C@H](CC(C)C)N(C)C(=O)CN(Cc2ccccc2)C(=O)[C@H](Cc2ccc3ccccc3c2)NC(=O)CN(Cc2ccc(Cl)cc2)C(=O)[C@H]2CCCN2C1=O | -9.46 |
| CCCC[C@@H]1NC(=O)[C@H](CC(C)C)N(C)C(=O)CN(CCOc2ccccc2)C(=O)[C@H](Cc2ccc3ccccc3c2)NC(=O)CN(CCCCc2ccccc2)C(=O)[C@H]2CCCN2C1=O | -7.95 |

Values of Furukawa et al. 2016, doi:10.1021/acs.jmedchem.6b01246, as listed in CycPeptMPDB.